Test results taken from paper PMC4281105 (2014).

Columns and labels:
[1] = tested on: hRSV strain Long; assay: hRSV CPE assay; assay type: cell-based, human respiratory syncytial virus; conditions: HEp-2 CC50 / RSV CPE EC50
[2] = in vitro; conditions: human, HEp-2 cells

| SMILES | selectivity index (CC50/EC50) [1] | CC50 at 5 days [2] | CC50 at 3 days [2] |
| --- | --- | --- | --- |
| Cc1ccc(Cn2c(=O)n(Cc3ccc(C(=O)N(C)C)cc3)c(=O)c3ccccc32)cc1 [Compound 35, N,N-Dimethyl-4-((1-(4-methylbenzyl)-2,4-dioxo-1,2-dihydroquinazolin-3(4H)-yl)methyl)benzamide] | <0.2 | 10.1 ± 0.2 µM | – |
| COCCCNC(=O)c1ccc(Cn2c(=O)c3ccccc3n(Cc3cccc(Br)c3)c2=O)cc1 [Compound 9, 4-((1-(3-Bromobenzyl)-2,4-dioxo-1,2-dihydroquinazolin-3(4H)-yl)methyl)-N-(3-methoxypropyl)benzamide] | – | 3.7 ± 0.4 µM | – |
| Cc1ccc(Cn2c(=O)n(Cc3ccc(C(=O)NCCCOC(C)C)cc3)c(=O)c3ccccc32)cc1 [Compound 25, N-(3-Isopropoxypropyl)-4-((1-(4-methylbenzyl)-2,4-dioxo-1,2-dihydroquinazolin-3(4H)-yl)methyl)benzamide] | – | 19.3 ± 0.9 µM | – |
| COCCCNC(=O)c1ccc(Cn2c(=O)c3ccccc3n(Cc3ccccc3Br)c2=O)cc1 [Compound 8, 4-((1-(2-Bromobenzyl)-2,4-dioxo-1,2-dihydroquinazolin-3(4H)-yl)methyl)-N-(3-methoxypropyl)benzamide] | <0.2 | 8.2 ± 0.2 µM | – |
| COCCCNC(=O)c1ccc(Cn2c(=O)c3ccccc3n(Cc3ccc(Cl)cc3)c2=O)cc1 [Compound 13, 4-((1-(4-Chlorobenzyl)-2,4-dioxo-1,2-dihydroquinazolin-3(4H)-yl)methyl)-N-(3-methoxypropyl)benzamide] | >7.5 | > 50 µM | – |
| COCCCNC(=O)c1ccc(Cn2c(=O)c3ccccc3n(Cc3cccnc3)c2=O)cc1 [Compound 23, 4-((2,4-Dioxo-1-(pyridin-3-ylmethyl)-1,2-dihydroquinazolin-3(4H)-yl)methyl)-N-(3-methoxypropyl)benzamide] | <0.2 | 8 ± 0.3 µM | – |
| COCCCNC(=O)c1ccc(Cn2c(=O)c3ccccc3n(Cc3ccc(OC)cc3)c2=O)cc1 [Compound 14, 4-((1-(4-Methoxybenzyl)-2,4-dioxo-1,2-dihydroquinazolin-3(4H)-yl)methyl)-N-(3-methoxypropyl)benzamide] | >25.0 | > 50 µM | – |
| Cc1ccc(Cn2c(=O)n(Cc3ccc(C(=O)NCCCN(C)C)cc3)c(=O)c3ccccc32)cc1 [Compound 26, N-(3-(Dimethylamino)propyl)-4-((1-(4-methylbenzyl)-2,4-dioxo-1,2-dihydroquinazolin-3(4H)-yl)methyl)benzamide] | – | 16.6 ± 1.5 µM | – |
| COCCCNC(=O)c1ccc(Cn2c(=O)c3ccccc3n(Cc3cc(C)on3)c2=O)cc1 [Compound 21, N-(3-Methoxypropyl)-4-((1-((5-methylisoxazol-3-yl)methyl)-2,4-dioxo-1,2 dihydroquinazolin-3(4H)-yl)methyl)benzamide] | <0.2 | 7.7 ± 0.7 µM | – |
| Cc1ccc(Cn2c(=O)n(Cc3ccc(C(=O)N4CCCC4)cc3)c(=O)c3ccccc32)cc1 [Compound 32, 1-(4-Methylbenzyl)-3-(4-(pyrrolidine-1-carbonyl)benzyl)-quinazoline-2,4(1H,3H)-dione] | <0.1 | 5.4 ± 0.3 µM | – |
| Cc1ccc(Cn2c(=O)n(Cc3ccc(C(=O)NCC4CCC4)cc3)c(=O)c3ccccc32)cc1 [Compound 30, N-(Cyclobutylmethyl)-4-((1-(4-methylbenzyl)-2,4-dioxo-1,2-dihydroquinazolin-3(4H)-yl)methyl)benzamide] | 7.9 | 7.6 ± 0.3 µM | – |
| Cc1ccc(Cn2c(=O)n(Cc3ccc(C(=O)Nc4ccncc4)cc3)c(=O)c3ccccc32)cc1 [Compound 42, 4-((1-(4-Methylbenzyl)-2,4-dioxo-1,2-dihydroquinazolin-3(4H)-yl)methyl)-N-(pyridin-4-yl)benzamide] | – | 1.8 ± 0.4 µM | – |
| Cc1ccc(Cn2c(=O)n(Cc3ccc(C(=O)N4CCOCC4)cc3)c(=O)c3ccccc32)cc1 [Compound 31, 1-(4-Methylbenzyl)-3-(4-(morpholine-4-carbonyl)benzyl)-quinazoline-2,4(1H,3H)-dione] | <0.4 | 17.5 ± 1.1 µM | – |
| Cc1ccc(Cn2c(=O)n(Cc3ccc(C(=O)Nc4nccs4)cc3)c(=O)c3ccccc32)cc1 [Compound 41, 4-((1-(4-Methylbenzyl)-2,4-dioxo-1,2-dihydroquinazolin-3(4H)-yl)methyl)-N-(thiazol-2-yl)benzamide] | – | > 50 µM | – |
| CC(C)c1ccc(Cn2c(=O)n(Cc3ccc(C(=O)NCC4COC4)cc3)c(=O)c3ccccc32)cc1 [Compound 44, 4-((1-(4-Isopropylbenzyl)-2,4-dioxo-1,2-dihydroquinazolin-3(4H)-yl)methyl)-N-(oxetan-3-ylmethyl)benzamide] | 9.0 | 3.6 ± 0.08 µM | – |
| COCCCNC(=O)c1ccc(Cn2c(=O)c3ccccc3n(Cc3ccc4nonc4c3)c2=O)cc1 [Compound 20, 4-((1-(Benzo[c][1,2,5]oxadiazol-5-ylmethyl)-2,4-dioxo-1,2-dihydroquinazolin-3(4H)-yl)methyl)-N-(3-methoxypropyl)benzamide] | >10.2 | > 50 µM | – |

| SMILES | selectivity index (CC50/EC50) [1] | CC50 at 5 days [2] | CC50 at 3 days [2] |
| --- | --- | --- | --- |
| COCCCNC(=O)c1ccc(Cn2c(=O)c3ccccc3n(Cc3ccc(Br)cc3)c2=O)cc1 [Compound 10, 4-((1-(4-Bromobenzyl)-2,4-dioxo-1,2-dihydroquinazolin-3(4H)-yl)methyl)-N-(3-methoxypropyl)benzamide] | >55.6 | > 50 µM | – |
| COc1cc(NC(=O)c2ccc(Cn3c(=O)c4ccccc4n(Cc4ccc(C(C)C)cc4)c3=O)cc2)ccn1 [Compound 50, 4-((1-(4-Isopropylbenzyl)-2,4-dioxo-1,2-dihydroquinazolin-3(4H)-yl)methyl)-N-(2-methoxypyridin-4-yl)benzamide] | <3.3 | < 1.6 µM | – |
| CCOCCCNC(=O)c1ccc(Cn2c(=O)c3ccccc3n(Cc3ccc(C)cc3)c2=O)cc1 [Compound 24, N-(3-Ethoxypropyl)-4-((1-(4-methylbenzyl)-2,4-dioxo-1,2-dihydroquinazolin-3(4H)-yl)methyl)benzamide] | – | 8.5 ± 0.3 µM | – |
| Cc1ccc(Cn2c(=O)n(Cc3ccc(C(=O)NC(C)(C)C)cc3)c(=O)c3ccccc32)cc1 [Compound 36, N-(tert-Butyl)-4-((1-(4-methylbenzyl)-2,4-dioxo-1,2-dihydroquinazolin-3(4H)-yl)methyl)benzamide] | – | 8.4 ± 0.3 µM | – |
| COCCCNC(=O)c1ccc(Cn2c(=O)c3ccccc3n(Cc3ccc(C(F)(F)F)cc3)c2=O)cc1 [Compound 16, 4-((2,4-Dioxo-1-(4-(trifluoromethyl)benzyl)-1,2-dihydroquinazolin-3(4H)-yl)methyl)-N-(3-methoxypropyl)benzamide] | >38.5 | > 50 µM | – |
| CC(C)(C)c1ccc(Cn2c(=O)n(Cc3ccc(C(=O)NCC4COC4)cc3)c(=O)c3ccccc32)cc1 [Compound 47, 4-((1-(4-tert-Butylbenzyl)-2,4-dioxo-1,2-dihydroquinazolin-3(4H)-yl)methyl)-N-(oxetan-3-ylmethyl)benzamide] | – | 3.7 ± 0.3 µM | – |
| Cc1ccc(Cn2c(=O)n(Cc3ccc(C(=O)NCc4ccco4)cc3)c(=O)c3ccccc32)cc1 [Compound 40, N-(Furan-2-ylmethyl)-4-((1-(4-methylbenzyl)-2,4-dioxo-1,2-dihydroquinazolin-3(4H)-yl)methyl)benzamide] | – | > 50 µM | – |
| COCCCNC(=O)c1ccc(Cn2c(=O)c3ccccc3n(Cc3ccccn3)c2=O)cc1 [Compound 22, 4-((2,4-Dioxo-1-(pyridin-2-ylmethyl)-1,2-dihydroquinazolin-3(4H)-yl)methyl)-N-(3-methoxypropyl)benzamide] | <0.3 | 16 ± 0.3 µM | – |
| Cc1ccc(Cn2c(=O)n(Cc3ccc(C(=O)NCC4COC4)cc3)c(=O)c3ccccc32)cc1 [Compound 29, 4-((1-(4-Methylbenzyl)-2,4-dioxo-1,2-dihydroquinazolin-3(4H)-yl)methyl)-N-(oxetan-3-ylmethyl)benzamide] | – | 47 ± 1.9 µM | – |
| CCc1ccc(Cn2c(=O)n(Cc3ccc(C(=O)NCCCOC)cc3)c(=O)c3ccccc32)cc1 [Compound 18, 4-((1-(4-Ethylbenzyl)-2,4-dioxo-1,2-dihydroquinazolin-3(4H)-yl)-methyl)-N-(3-methoxypropyl)benzamide] | – | > 50 µM | – |
| COCCCCNC(=O)c1ccc(Cn2c(=O)c3ccccc3n(Cc3ccc(C)cc3)c2=O)cc1 [Compound 27, N-(4-Methoxybutyl)-4-((1-(4-methylbenzyl)-2,4-dioxo-1,2-dihydroquinazolin-3(4H)-yl)methyl)benzamide] | 7.8 | 6.5 ± 0.3 µM | – |
| COCCCNC(=O)c1ccc(Cn2c(=O)c3ccccc3n(Cc3ccc(F)cc3)c2=O)cc1 [Compound 12, 4-((1-(4-Fluorobenzyl)-2,4-dioxo-1,2-dihydroquinazolin-3(4H)-yl)-methyl)-N-(3-methoxypropyl)benzamide] | – | 7.6 ± 0.2 µM | – |
| Cc1ccc(Cn2c(=O)n(Cc3ccc(C(=O)Nc4ccccc4)cc3)c(=O)c3ccccc32)cc1 [Compound 38, 4-((1-(4-Methylbenzyl)-2,4-dioxo-1,2-dihydroquinazolin-3(4H)-yl)methyl)-N-phenylbenzamide] | – | > 50 µM | – |
| COCCNC(=O)c1ccc(Cn2c(=O)c3ccccc3n(Cc3ccc(C)cc3)c2=O)cc1 [Compound 28, N-(2-Methoxyethyl)-4-((1-(4-methylbenzyl)-2,4-dioxo-1,2-dihydroquinazolin-3(4H)-yl)methyl)benzamide] | – | – | > 50 µM |
| Cc1ccc(Cn2c(=O)n(Cc3ccc(C(=O)NC4CCCCC4)cc3)c(=O)c3ccccc32)cc1 [Compound 37, N-Cyclohexyl-4-((1-(4-methylbenzyl)-2,4-dioxo-1,2-dihydroquinazolin-3(4H)-yl)methyl)benzamide] | – | > 50 µM | – |
| Cc1ccc(Cn2c(=O)n(Cc3ccc(C(=O)NCc4ccccc4)cc3)c(=O)c3ccccc32)cc1 [Compound 39, N-Benzyl-4-((1-(4-methylbenzyl)-2,4-dioxo-1,2-dihydroquinazolin-3(4H)-yl)methyl)benzamide] | – | 41.8 ± 7.9 µM | – |
